This note sets out measurements from PMC6698826.

Chains of the proteins cited; added tags and fusions are not shown. Residues count along the entry.
UniProt P55899, 24-297, chain 1 of 2: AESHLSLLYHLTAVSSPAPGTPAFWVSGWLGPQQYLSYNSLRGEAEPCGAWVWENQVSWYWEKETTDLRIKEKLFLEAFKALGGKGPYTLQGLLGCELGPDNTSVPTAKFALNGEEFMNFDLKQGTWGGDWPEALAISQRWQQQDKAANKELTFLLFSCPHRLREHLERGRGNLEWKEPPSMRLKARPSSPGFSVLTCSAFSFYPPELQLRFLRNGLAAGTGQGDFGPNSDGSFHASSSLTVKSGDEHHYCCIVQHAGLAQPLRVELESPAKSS

Where only a bound is given, the exact number is not on record here.

This assay concerns the target recombinant human FcRn (FcRn-His6) (UniProt P55899). The assay can be described thus: ELISA; competition: FcRn-His6 captured at 4 μg/mL on copper-coated plates; serial dilutions of unlabeled test antibody with a fixed 4 μg/mL of biotinylated huIgG1; pH 6.0 (0.05 M MES); 1 h at room temperature; streptavidin-HRP and TMB, absorbance at 450 nm. In general terms: An ELISA detects its analyte on a solid surface through an enzyme-linked reagent.

As to Ab1 huIgG1 sigma (IgG1σ) (antibody), the fold reduction in binding affinity relative to the huIgG1 wild-type control was < 2 fold.
